Assay results published in PubChem BioAssay AID1671193 (National Center for Advancing Translational Sciences (NCATS), 2021).
Where “and” joins values, the source holds several entries; their conditions need not be identical. Equal entries are not always repeated. Only a part is listed here, and it is no random draw. Results filed as inconclusive are left out. Calls of active or inactive are those of the source. Calls follow the shape of the dose curve; as a rule, active = well fitted cell-killing curve with a large enough effect; inconclusive = small, poorly fitted or top-dose-only effect, or effect the other way; inactive = flat fitted curve, though single readings scatter.

test: GF-AFC viability counterscreen for inhibitors of alpha-synuclein gene (SNCA) expression; settings: HEK-293-SNCA-luc viability, GF-AFC fluorescence, 24 h; at 57.1 µM (top of the series) unless noted; also: nearly all actives have a fitted effect of over 30% in size
Description: Assay Submitter (PI): Daniel R. Scoles Ph.D.
Department of Neurology, University of Utah, Salt Lake City, Utah
Accumulation of alpha-synuclein is a main underlying pathological feature of Parkinson's disease (PD) and alpha-synucleinopathies, for which lowering expression of the alpha-synuclein gene (SNCA) is a potential therapeutic avenue. Using a cell-based luciferase reporter of SNCA expression we performed a quantitative high throughput screen (qHTS) of 155,885 compounds in dose response. The screening assay was generated using genome editing to insert the luciferase gene downstream and in frame of the SNCA gene in HEK-293 cells (1). A viability counterscreen using GF-AFC was used to eliminate cytotoxic and false positive compounds. After in silico analysis (clustering, removal of frequent hitter nuisance chemotypes), inhibitor compounds from the primary screen were selected for follow up and re-tested at 11-doses in the SNCA-luc cells (luciferase and GF-AFC confirmation), and in CMV-luc expressing cell line to flag general transcriptional repressors.
Described herein are the results of the GF-AFC viability counterscreen for SNCA inhibitors; inactivity (no decrease in fluorescence signal, not cytotoxic) is the desired output for this assay.
1. Dansithong, W., Paul, S., Scoles, D. R., Pulst, S. M., and Huynh, D. P. (2015) Generation of SNCA Cell Models Using Zinc Finger Nuclease (ZFN) Technology for Efficient High-Throughput Drug Screening. PLoS ONE 10, e0136930.
SEQUENCE No. (e.g., 1, 2, 3, etc.); […] (e.g., Cells, Incubation, Reagent, etc.); VALUE; DESCRIPTION
1; Cells; 4 uL; Dispense 1500 HEK-293-SNCA-luc cells/well into Greiner 1536-well white / solid bottom tissue culture treated plate. The plate was covered with metal lids with gas-exchange holes.
2; Incubate; 24 hours; Incubate at 37C, 5% CO2, 95% RH.
3; Compounds; 23 nL; Compounds and controls were transferred via a Kalypsys Pin Tool (Wako USA) equipped with a 1536-slotted pin array. The plate was covered with metal lids with gas-exchange holes.
4; Incubate; 24 hours; Incubate at 37C, 5% CO2, 95% RH.
5; Dispense; 1 uL; Dispense Gly-Phe-7-amino-4-trifluoromethylcoumarin (GF-AFC, prepared at 125 uM in PBS) was added. The plate was covered with metal lids with gas-exchange holes.
6; Incubate; 30 min; Incubate at 37C, 5% CO2.
7; Detector; Fluorescence; Measure fluorescence with ViewLux microplate reader (PerkinElmer) equipped with 405/10 excitation and 540/25 emission filters.
8; Dispense; 3 uL; Dispense ONE-Glo ([…]) lucifase detection reagent was added to each well. Plates were covered with metal lids with gas-exchange holes.
9; Incubate; 15 min; Incubate at room temperature.
10; Detector; Luminescence; Measure luminescence with ViewLux microplate reader (PerkinElmer) equipped with clear filters.
NOTES (numbers refer to sequence above)
1; HEK-293-SNCA-luc were cultured and suspended in phenol-red free DMEM (4.5 g/L glucose, 25 mM HEPES, cat #21063 (Thermo)).
3; Compounds were added to the assay plate in an 11-point intra plate dose response, 1:3 titration in DMSO with a final concentration range of […]. Vehicle-only plates, with DMSO being pin-transferred to every well, were inserted at the beginning of screening runs to confirm expected assay performance. Activity was normalized to wells containing medium only (-100% activity, full inhibition) and SNCA-luc cells treated with DMSO vehicle control (0% activity), contained on the same plate as test samples.
10; Signals were analyzed, and dose-response curves were fit using the Hill equation. Compounds in curve classes -1.1, -1.2, -2.1, -2.2 in the SNCA-luc assay were considered active. Compounds were eliminated from further consideration if also active (curve class -1.1, -1.2, -1.3, -1.4, -2.1, -2.2, -2.3, -2.4) in the GF-AFC cytotoxicity assay.

| Structure (SMILES) | activity change, negative = cytotoxicity |
| --- | --- |
| CNCc1cccc(C)n1 | inactive: -8.38% [at 87.6 µM] |
| CN(C(=O)Cc1ccc(Cl)c(Cl)c1)[C@@H]1CC[C@]2(CCCO2)C[C@H]1N1CCCC1 | inactive: 0.0972% |
| CN(C(=O)Cc1ccc(Cl)c(Cl)c1)[C@H]1CC[C@@]2(CCCO2)C[C@@H]1N1CCCC1 | inactive: 28.4% [at 23.9 µM] |
| CN(C(=O)Cc1ccccc1)[C@@H]1CC[C@]2(CCCO2)C[C@H]1N1CCCC1 | inactive: -10.2% |
| CCn1c(=O)n([C@@H]2CCN(CC3CCCCCCC3)C[C@H]2CO)c2ccccc21 | inactive: -11.2% |
| NC(=O)Nc1ccc([As](=O)(O)O)cc1 | inactive: -14.2% [at 23.9 µM] |
| CCn1c(=O)n([C@@H]2CCN(CC3CCCCCCC3)C[C@@H]2CO)c2ccccc21 | inactive: 3.28% |
| CN(CCCl)Cc1cc(Cl)c(NC2=NCCN2)c(Cl)c1 | inactive: 3.19% |
| CNCc1cc2ccccc2o1 | inactive: 2.61% [at 87.6 µM] |
| CN(C)C1(c2ccccc2)CCC2(CC1)OCCc1c2[nH]c2ccc(F)cc12 (stereo unspecified) | inactive: -30.7% |
| CN(C(=O)Cc1ccccc1)[C@H]1CC[C@@]2(CCCO2)C[C@@H]1N1CCCC1 | inactive: -0.0823% [at 23.9 µM] |
| Cc1cc([N+](=O)[O-])cc([N+](=O)[O-])c1O | inactive: -21.2% |
| CN(C(=O)Cc1ccc(Cl)c(Cl)c1)[C@@H]1CCCC[C@@H]1N1CCCC1 | inactive: -10% |
| CN(C(=O)Cc1ccc(Cl)c(Cl)c1)[C@H]1CCCC[C@H]1N1CCCC1 | inactive: 1.23% |
| O=C(O[C@H]1CN2CCC1CC2)C1NCc2ccccc2[C@@H]1c1ccccc1 (stereo partly specified) | inactive: -2.62% |
| CN(C(=O)Cc1ccc(Cl)c(Cl)c1)[C@H]1CCCC[C@@H]1N1CCCC1 | inactive: 1.23% and inactive: 5.04% |
